Data as given in ChEMBL document CHEMBL1138285, “Structure-activity relationships of adenosines with heterocyclic N6-substituents” (Bioorg Med Chem Lett, 2007).

Tests used:
[1] = system: Adenosine receptor A1 (Mesocricetus auratus); experiment: Intrinsic activity at adenosine A1 receptor expressed in DDT1 MF2 cells assessed as maximal inhibition of (-)-isoproterenol-stimulated cAMP accumulation
Homo sapiens = organism: Homo sapiens; experiment: Selectivity for adenosine A1 receptor over adenosine A2A receptor

| Compound | Intrinsic activity [1] | Ratio Ki (Homo sapiens) |
| --- | --- | --- |
| O=C(OCc1ccccc1)N1[C@H]2CC[C@H]1[C@H](Nc1ncnc3c1ncn3[C@@H]1O[C@H](CO)[C@@H](O)[C@H]1O)C2 | 1.01 |  |
| OC[C@H]1O[C@@H](n2cnc3c(NC4CC5CCC4N5)ncnc32)[C@H](O)[C@@H]1O (stereo not given in full) | 1.02 |  |
| CC(=O)N1CC[C@@H](Nc2ncnc3c2ncn3[C@@H]2O[C@H](CO)[C@@H](O)[C@H]2O)C1 | 1 | > 4700 |
| OC[C@H]1O[C@@H](n2cnc3c(N[C@@H]4CC[Se]C4)ncnc32)[C@H](O)[C@@H]1O | 1.01 |  |

Further lines, results first:

| Intrinsic activity [1] | Ratio Ki (Homo sapiens) | Compound |
| --- | --- | --- |
| 0.98 | 140 | OC[C@H]1O[C@@H](n2cnc3c(N[C@@H]4CCSC4)ncnc32)[C@H](O)[C@@H]1O |
| 0.99 | > 4700 | O=C(OCc1ccccc1)N1CC[C@@H](Nc2ncnc3c2ncn3[C@@H]2O[C@H](CO)[C@@H](O)[C@H]2O)C1 |
| 0.86 |  | O=C(OCc1ccccc1Cl)N1[C@H]2CC[C@H]1[C@H](Nc1ncnc3c1ncn3[C@@H]1O[C@H](CO)[C@@H](O)[C@H]1O)C2 |
